Measurements from ChEMBL document CHEMBL1159185, “Metabolism and structure activity data based drug design: discovery of () SCH 53079 an analog of the potent cholesterol absorption inhibitor () SCH 48461” (1996).

System: Cricetinae gen. sp.
Assay: Compound was evaluated for the reduction of liver cholesterol ester levels in the cholesterol-fed Hamster model

COc1ccc([C@@H]2[C@@H](CCCc3ccccc3)C(=O)N2c2ccc(OC)cc2)cc1 was tested. Which ED50 did it give?
Its ED50 is 2.2 mg/kg.
